Reference: the supplement of paper PMC12494721
For some assays here: The hits were mostly taken out for another list; the other results follow.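 The calls were made as follows: for the amine columns active = adjusted P below 0.05 in both replicates with a change the same way and a mean fold change under 0.8 or over 1.25; inactive = the rest.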 For some assays here: This list holds what a sample rich in lowest values left over. Only a part is listed here, and it is no random draw.

Columns and labels:
Settings in all cases: 20 µM; incubation time: 27 h, anaerobic, 37 °C
[1] = tested on: Clostridium sporogenes DSM 1664; assay: growth (OD595) fold change vs plate DMSO controls (fold change (ratio)); higher = more growth
Summary of the method: (§1)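 Shaken 96-well cultures in mGAM, grown anaerobically for 27 h at 37 °C, were read at 595 nm. OD came from blank-subtracted readings, corrected for background with 20 µM compound solutions in water and scaled by a calibration factor of 5. Growth is the fold change versus the plate's median DMSO control. Values average 2 biological replicates, and any fold change above 1.5 is NA.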

Escherichia coli IAI1 [2] = assay: as above
Summary of the method: as §1

[3] = tested on: Klebsiella aerogenes DSM 30053; assay: as above
Summary of the method: as §1

[4] = tested on: Klebsiella aerogenes DSM 30053; assay: fold change of Histamine concentration vs plate DMSO controls (fold change (ratio)); higher = more amine produced, active = hit call of the paper (significant change in both replicates, either direction)
Summary of the method: (§2)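 Anaerobic mGAM cultures of four gut bacterial strains were grown at 37 °C for 27 h in 80 µL wells, starting at OD 0.1 before 1:1 dilution. Compounds were at 20 µM final (sweeteners 50 µM). Whole cultures were extracted with cold acetonitrile/methanol containing 0.1% formic acid and centrifuged. Amines were quantified by LC–triple-quadrupole MS (dynamic MRM) against external calibration curves and drift-corrected within batch. Each value is the fold change versus plate DMSO controls, averaged over 2 biological replicates.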

Escherichia coli IAI1 [5] = assay: fold change of Putrescine concentration vs plate DMSO controls (fold change (ratio)); higher = more amine produced, active = hit call of the paper (significant change in both replicates, either direction)
Summary of the method: as §2

[6] = tested on: Klebsiella aerogenes DSM 30053; assay: as above
Summary of the method: as §2

[7] = tested on: Clostridium sporogenes DSM 1664; assay: fold change of Tryptamine concentration vs plate DMSO controls (fold change (ratio)); higher = more amine produced, active = hit call of the paper (significant change in both replicates, either direction)
Summary of the method: as §2

[8] = tested on: Ruminococcus gnavus DSM 108212; assay: as above
Summary of the method: as §2

Escherichia coli IAI1 [9] = assay: fold change of Cadaverine concentration vs plate DMSO controls (fold change (ratio)); higher = more amine produced, active = hit call of the paper (significant change in both replicates, either direction)
Summary of the method: as §2

[10] = tested on: Klebsiella aerogenes DSM 30053; assay: as above
Summary of the method: as §2

[11] = tested on: Ruminococcus gnavus DSM 108212; assay: fold change of 2-Phenylethylamine concentration vs plate DMSO controls (fold change (ratio)); higher = more amine produced, active = hit call of the paper (significant change in both replicates, either direction)
Summary of the method: as §2

COc1cc(Br)c(C[N+]2(CCOCCC3CCC4CC3C4(C)C)CCOCC2)cc1OC (stereo unspecified) [Pinaverium bromide]
growth [1]: 0.807
growth (Escherichia coli IAI1 [2]): 1.03
growth [3]: 0.963
fold change of Histamine concentration [4]: inactive: 0.916
fold change of Putrescine concentration (Escherichia coli IAI1 [5]): inactive: 0.904
fold change of Putrescine concentration [6]: inactive: 0.93
fold change of Tryptamine concentration [7]: inactive: 1.07
fold change of Tryptamine concentration [8]: inactive: 0.964
fold change of Cadaverine concentration (Escherichia coli IAI1 [9]): inactive: 0.544
fold change of Cadaverine concentration [10]: inactive: 1.01
fold change of 2-Phenylethylamine concentration [11]: inactive: 1.34
